Test results taken from patent US20120121615A1, “ALANINYL MAYTANSINOL ANTIBODY CONJUGATES” (priority 2010, published 2012).

Tested on: SK-BR-3 cells
Experiment: SK-BR-3 cell proliferation assay (CellTiter-Glo Luminescent Cell Viability Assay)
Type: cell-based
Procedure: This cell proliferation assay determines the number of viable cells in culture based on quantitation of the ATP present, an indicator of metabolically active cells (Crouch et al (1993) J. Immunol. Meth. 160:81-88; U.S. Pat. No. 6,602,677). The CellTiter-Glo® Assay was conducted in 96 well format, making it amenable to automated high-throughput screening (HTS) (Cree et al (1995) AntiCancer Drugs 6:398-404). The homogeneous assay procedure involves adding the single reagent (CellTiter-Glo® Reagent) directly to cells cultured in serum-supplemented medium. Cell washing, removal of medium and multiple pipetting steps are not required. The system detects as few as 15 cells/well in a 384-well format in 10 minutes after adding reagent and mixing.
The homogeneous “add-mix-measure” format results in cell lysis and generation of a luminescent signal proportional to the amount of ATP present. The amount of ATP is directly proportional to the number of cells present in culture. […] Viable cells are reflected in relative luminescence units (RLU). The substrate, Beetle Luciferin, is oxidatively decarboxylated by recombinant firefly luciferase with concomitant conversion of ATP to AMP and generation of photons.

With trastuzumab the “IC50 (ng/ml)” value (SK-BR-3 cell proliferation at 5 days) was >10,000 ng/ml and the in vitro activity (up to 10,000 ng/ml concentration tested) was “very little or no activity”.
